For orientation: EC50 means the concentration giving half of the maximal effect.

By UniProt entry, the sequences of proteins in these tests, tags left out. Residues count along the entry.
UniProt O42275, 24-633 limits assumed: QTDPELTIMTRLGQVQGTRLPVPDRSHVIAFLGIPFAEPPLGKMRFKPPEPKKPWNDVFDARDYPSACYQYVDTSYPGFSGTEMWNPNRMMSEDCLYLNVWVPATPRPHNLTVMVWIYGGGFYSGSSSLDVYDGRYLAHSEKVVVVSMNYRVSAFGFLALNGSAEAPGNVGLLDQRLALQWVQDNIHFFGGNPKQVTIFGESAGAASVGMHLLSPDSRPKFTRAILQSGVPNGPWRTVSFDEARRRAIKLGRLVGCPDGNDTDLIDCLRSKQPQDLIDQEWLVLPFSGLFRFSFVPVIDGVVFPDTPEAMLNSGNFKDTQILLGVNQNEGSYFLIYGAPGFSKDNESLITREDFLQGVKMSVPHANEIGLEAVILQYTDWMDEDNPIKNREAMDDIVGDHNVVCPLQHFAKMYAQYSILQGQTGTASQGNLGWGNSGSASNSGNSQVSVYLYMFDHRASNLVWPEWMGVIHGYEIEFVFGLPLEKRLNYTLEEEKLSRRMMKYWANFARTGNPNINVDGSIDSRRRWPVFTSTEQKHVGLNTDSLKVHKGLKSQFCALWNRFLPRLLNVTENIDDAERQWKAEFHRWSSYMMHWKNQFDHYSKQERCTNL

In assay [1] the target is T1, Acetylcholinesterase (Electrophorus electricus, UniProt O42275). The assay is described as follows: Resurrection of methylphosphonate-aged electric eel AChE assessed as enzyme reactivation using acetylthiocholine as substrate at pH 9 after 1 day by Ellman's assay relative to control. A general note: DTNB colorimetry detects thiols as they appear.
The target of assay [2] is T1, Acetylcholinesterase. The assay can be described thus: Resurrection of isopropyl phosphate-aged electric eel AChE assessed as enzyme reactivation using acetylthiocholine as substrate at pH 9 after 1 day by Ellman's assay relative to control.

`Oc1cccnc1CN1CCCC1`: the EC50 was 1210 µM at Acetylcholinesterase [1] and 1020 µM on Acetylcholinesterase [2].

The record behind these values is BindingDB's records for 29870665.
